# Data taken from paper PMC1192819, “Molecular cloning and characterization of a nuclear androgen receptor activated by 11-ketotestosterone” (Reproductive biology and endocrinology : RB&E, 2005).
# Molecular target: T1, stickleback ARβ2 (reticulocyte lysate) (Gasterosteus aculeatus, UniProt Q801Z2)
# T1 sequence (Q801Z2 1-735): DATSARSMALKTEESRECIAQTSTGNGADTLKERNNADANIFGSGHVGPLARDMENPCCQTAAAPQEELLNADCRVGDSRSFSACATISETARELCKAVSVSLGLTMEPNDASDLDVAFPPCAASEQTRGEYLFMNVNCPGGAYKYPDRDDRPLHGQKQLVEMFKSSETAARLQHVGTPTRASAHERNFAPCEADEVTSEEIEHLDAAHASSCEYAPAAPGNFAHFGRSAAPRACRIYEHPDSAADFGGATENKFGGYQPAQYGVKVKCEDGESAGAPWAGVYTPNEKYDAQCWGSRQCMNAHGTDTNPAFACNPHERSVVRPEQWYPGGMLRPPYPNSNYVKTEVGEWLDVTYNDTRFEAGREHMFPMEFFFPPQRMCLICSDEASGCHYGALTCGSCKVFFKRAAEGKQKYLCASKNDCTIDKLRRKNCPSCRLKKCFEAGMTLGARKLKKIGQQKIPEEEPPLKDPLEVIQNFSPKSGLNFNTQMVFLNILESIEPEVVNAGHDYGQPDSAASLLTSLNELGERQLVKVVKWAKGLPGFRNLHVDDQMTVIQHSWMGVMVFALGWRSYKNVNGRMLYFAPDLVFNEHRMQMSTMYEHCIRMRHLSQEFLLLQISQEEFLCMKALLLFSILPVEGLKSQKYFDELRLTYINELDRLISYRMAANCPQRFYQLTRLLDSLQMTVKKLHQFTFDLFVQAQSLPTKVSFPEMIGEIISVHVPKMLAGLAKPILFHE
# Test: Ligand competition assay with 1 nM [3H]-DHT, ARβ2 containing reticulocyte extract
# Type: binding, three-spined stickleback (Gasterosteus aculeatus)
structure (smiles),measurement,value
"C[C@]12CC[C@H]3[C@@H](CCC4=CC(=O)CC[C@@]43C)[C@@H]1CC[C@@H]2O [T, testosterone]",EC50,3.03 ± 0.43 nM
